This passage reports IC50 results from ChEMBL document CHEMBL1201862, “PubChem BioAssay data set” (2004).

Chains of the proteins cited; added tags and fusions are not shown. Lines headed by an entry give the natural chain unless they say otherwise; changes in a name come on top.
UniProt P41145: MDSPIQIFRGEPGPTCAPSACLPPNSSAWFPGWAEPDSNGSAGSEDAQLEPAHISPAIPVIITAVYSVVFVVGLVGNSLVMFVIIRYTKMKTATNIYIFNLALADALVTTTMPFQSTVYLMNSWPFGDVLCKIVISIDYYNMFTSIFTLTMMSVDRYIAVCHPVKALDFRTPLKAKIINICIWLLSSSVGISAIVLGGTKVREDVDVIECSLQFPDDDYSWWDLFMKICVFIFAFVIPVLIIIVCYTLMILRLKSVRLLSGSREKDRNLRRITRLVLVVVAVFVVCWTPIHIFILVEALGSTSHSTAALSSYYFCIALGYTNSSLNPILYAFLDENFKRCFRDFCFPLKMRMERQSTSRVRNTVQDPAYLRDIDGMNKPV

As a reminder, the IC50 is the point on the concentration scale where inhibition reaches its midpoint.

Calls of active or inactive are those of the source.

The nature of experiment [1]: cells. It is filed as functional.
The target of experiment [2] is Kappa-type opioid receptor (Homo sapiens, UniProt P41145). As to the kind of experiment: SAR analysis of small molecule antagonists of the kappa opioid receptor via a luminescent beta-arrestin assay - Set 3. [Related pubchem assays (depositor defined):AID1777, AID1778, AID1785, AID1786, AID1966, AID2133, AID2136, AID2285, AID2495]. It is filed as functional.

As for `O=C(Nc1ccc(Br)cn1)c1ccc([N+](=O)[O-])o1`, the IC50 in experiment [1] was active: 2.14 µM.

For `Cc1ccc(S(=O)(=O)NCc2ccc(C(=O)NCCN(Cc3ccc(Br)cc3)C(C)C)cc2)cc1`, in experiment [2], the IC50 was active: 0.662 µM.
